Results: PubChem BioAssay (EPA / NIEHS)
Only a part is listed here, and it is no random draw. Results filed as inconclusive are left out. Calls of active or inactive are those of the source. How the source made its calls, unless noted: active means hit-call score of the fitted dose curve at least 0.9, where 1 is the maximum; inactive means score below 0.9.

Protein sequences, listed by entry. Tags and fused reporters are not part of them.
UniProt P17676, whole entry: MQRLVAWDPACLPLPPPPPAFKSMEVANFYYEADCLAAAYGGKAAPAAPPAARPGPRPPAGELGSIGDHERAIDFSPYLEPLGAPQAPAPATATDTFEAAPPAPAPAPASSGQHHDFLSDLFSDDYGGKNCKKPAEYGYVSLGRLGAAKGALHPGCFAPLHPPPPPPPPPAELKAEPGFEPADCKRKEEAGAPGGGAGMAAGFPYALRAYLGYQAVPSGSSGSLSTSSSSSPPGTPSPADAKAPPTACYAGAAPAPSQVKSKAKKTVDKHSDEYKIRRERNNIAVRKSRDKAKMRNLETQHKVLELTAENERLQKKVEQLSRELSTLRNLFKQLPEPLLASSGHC
UniProt Q96RI1, whole entry: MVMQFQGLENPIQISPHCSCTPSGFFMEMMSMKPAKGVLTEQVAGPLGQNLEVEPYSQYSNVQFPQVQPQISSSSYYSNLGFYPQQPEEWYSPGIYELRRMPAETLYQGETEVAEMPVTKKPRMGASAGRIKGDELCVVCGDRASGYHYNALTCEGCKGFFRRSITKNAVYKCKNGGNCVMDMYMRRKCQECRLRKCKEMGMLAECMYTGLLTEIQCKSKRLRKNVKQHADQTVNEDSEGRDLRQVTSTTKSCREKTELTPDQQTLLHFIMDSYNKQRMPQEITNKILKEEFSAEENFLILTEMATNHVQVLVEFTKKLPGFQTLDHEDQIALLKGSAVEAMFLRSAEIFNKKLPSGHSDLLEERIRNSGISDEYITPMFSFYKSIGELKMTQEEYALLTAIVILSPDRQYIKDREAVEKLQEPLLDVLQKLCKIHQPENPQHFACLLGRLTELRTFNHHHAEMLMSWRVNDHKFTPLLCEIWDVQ
UniProt Q00613, whole entry: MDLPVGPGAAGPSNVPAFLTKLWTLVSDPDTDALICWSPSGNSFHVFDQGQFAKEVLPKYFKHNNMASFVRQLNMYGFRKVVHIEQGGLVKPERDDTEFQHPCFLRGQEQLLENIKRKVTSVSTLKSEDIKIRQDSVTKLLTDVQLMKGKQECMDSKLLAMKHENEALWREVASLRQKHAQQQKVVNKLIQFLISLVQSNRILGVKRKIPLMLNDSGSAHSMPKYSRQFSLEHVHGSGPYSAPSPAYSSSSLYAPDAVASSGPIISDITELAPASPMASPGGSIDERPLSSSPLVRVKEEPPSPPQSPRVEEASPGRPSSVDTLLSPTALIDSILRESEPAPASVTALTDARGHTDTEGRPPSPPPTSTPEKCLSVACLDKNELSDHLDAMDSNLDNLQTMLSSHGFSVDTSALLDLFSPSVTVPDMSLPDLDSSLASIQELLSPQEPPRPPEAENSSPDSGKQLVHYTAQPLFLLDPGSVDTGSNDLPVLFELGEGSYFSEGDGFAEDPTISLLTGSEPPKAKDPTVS
UniProt P26367, whole entry: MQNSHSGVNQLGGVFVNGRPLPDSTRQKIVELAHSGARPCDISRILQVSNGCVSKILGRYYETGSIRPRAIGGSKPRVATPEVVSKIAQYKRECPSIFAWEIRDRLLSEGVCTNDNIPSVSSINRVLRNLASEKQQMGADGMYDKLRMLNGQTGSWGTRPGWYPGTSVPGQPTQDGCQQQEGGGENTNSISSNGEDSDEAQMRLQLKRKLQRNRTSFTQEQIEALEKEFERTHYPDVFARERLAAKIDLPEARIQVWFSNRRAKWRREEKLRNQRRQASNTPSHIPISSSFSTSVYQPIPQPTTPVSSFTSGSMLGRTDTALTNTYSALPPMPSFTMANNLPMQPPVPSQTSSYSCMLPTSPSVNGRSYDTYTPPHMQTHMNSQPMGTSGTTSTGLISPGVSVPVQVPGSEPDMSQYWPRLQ

Experiments:
[1] = STM_H9_NormalizedViability: Cytotoxicity Assessment at 120 hours in the Stemina devTOX quickPredict H9 human embryonic stem cell (hESC)-based Assay (AID 2283784; active means hit-call score of the fitted dose curve at least 0.9, where 1 is the maximum)
Summary of the method: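 CellTiter-Fluor RFU, background-subtracted, expressed relative to 0.1% DMSO neutral control by plate. Pluripotent H9 cells; treatment with daily re-dosing. Plates carried 1uM methotrexate (positive) and 5 nM methotrexate (negative) references.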

[2] = biological target: CCAAT/enhancer-binding protein beta (Homo sapiens) (UniProt P17676); test: ATG_C_EBP_CIS: Attagene CIS-FACTORIAL HepG2 Assay for human CCAAT/Enhancer Binding Protein (C/EBP) beta (AID 2282927); conditions: HepG2 Attagene cis-factorial transcription factor reporter; actives raise or lower the signal
Summary of the method: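 RT-PCR/capillary electrophoresis fluorescence of reporter mRNA, 24 h post-dose, in HepG2 cells carrying transfected cis-promoter reporter units. Bidirectional curve fitting against DMSO baseline captures gain or loss of signal.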

[3] = ATG_DR4_LXR_CIS: Attagene CIS-FACTORIAL HepG2 Assay for human Liver X Receptor (LXR), DR4 submotif (AID 2282929); conditions: HepG2 Attagene DR4 cis-reporter, mRNA transcription; actives raise or lower the signal
Summary of the method: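 Cells were transfected with multiple reporter transcription units, exposed to chemicals for 24 hours, then lysed for RNA. Reporter mRNA induction was measured by RT-PCR with capillary electrophoresis detection and fitted in both directions relative to DMSO.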

[4] = ATG_E_Box_CIS: Attagene CIS-FACTORIAL HepG2 Assay for human Enhancer Box (E-box) (AID 2282936); conditions: HepG2 E-box cis-reporter transcription, actives raise or lower the signal
Summary of the method: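 Measured 24 h post-dosing in HepG2 cells transfected with multiple cis-regulated reporter units, signal being reporter mRNA induction detected by fluorescent RT-PCR with capillary electrophoresis; gain or loss fitted against DMSO.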

[5] = biological target: Bile acid receptor (Homo sapiens) (UniProt Q96RI1); test: ATG_IR1_CIS: Attagene CIS-FACTORIAL HepG2 Assay for human Nuclear Receptor Subfamily 1 Group H Member 4 (NR1H4), IR1 submotif (AID 2282946); conditions: IR1 reporter transcription, actives raise or lower the signal
Summary of the method: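 Readout: reporter transcript levels by RT-PCR with fluorescent capillary electrophoresis, from HepG2 cells transiently transfected with multiplexed cis-regulated reporters and dosed 24 h. Gain- or loss-of-signal fitted versus DMSO negative control.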

[6] = biological target: Heat shock factor protein 1 (Homo sapiens) (UniProt Q00613); test: ATG_HSE_CIS: Attagene CIS-FACTORIAL HepG2 Assay for human Heat Shock Transcription Factor 1 (HSE) (AID 2282953); conditions: HepG2 HSE cis-reporter, Attagene RNA transcription; actives raise or lower the signal
Summary of the method: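 Liver-derived HepG2 cells carry transiently introduced multiple reporter units governed by cis promoters. Reporter RNA measured 24 h post-dose through reverse transcription, PCR amplification, fluorescent labelling and capillary electrophoresis, normalised to DMSO.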

[7] = biological target: Paired box protein Pax-6 (Homo sapiens) (UniProt P26367); test: ATG_Pax6_CIS: Attagene CIS-FACTORIAL HepG2 Assay for human Paired Box 6 (PAX6) (AID 2282956); conditions: HepG2 CIS-FACTORIAL PAX6 reporter transcription, RNA readout; actives raise or lower the signal
Summary of the method: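 Fluorescent RT-PCR products separated by capillary electrophoresis report PAX6-linked promoter mRNA in HepG2 cells 24 h post-dose. Curves fitted bidirectionally, DMSO as negative control.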

[8] = ATG_PPRE_CIS: Attagene CIS-FACTORIAL HepG2 Assay for human Peroxisome Proliferator-activated Response Element (PPRE) (AID 2282958); conditions: HepG2 PPRE cis-element reporter, Attagene transcription factor profiling; actives raise or lower the signal
Summary of the method: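 Cells are first transfected transiently with the multiplexed reporter library, then dosed for 24 h. Total RNA is reverse-transcribed, amplified, fluorescently end-labeled and HpaI-cut before capillary electrophoresis; activity is fitted bidirectionally against DMSO controls.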

[9] = ATG_TCF_b_cat_CIS: Attagene CIS-FACTORIAL HepG2 Assay for human T-Cell-Factor with beta-catenin (TCF/b-cat) (AID 2282965); conditions: HepG2 TCF/beta-catenin cis-reporter transcription, actives raise or lower the signal
Summary of the method: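 HepG2 cells transiently transfected with multiple cis-promoter-regulated reporter transcription units, so endogenous transcription factor activity is measured. Reporter mRNA read 24 hours after dosing by RT-PCR, fluorescent labelling and capillary electrophoresis; bidirectional fitting against DMSO.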

[10] = ATG_NF_kB_CIS: Attagene CIS-FACTORIAL HepG2 Assay for human Nuclear Factor Kappa B (NF-kB) (AID 2282991); conditions: HepG2 Attagene cis-factorial NF-kB reporter mRNA; actives raise or lower the signal
Summary of the method: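 Endogenous transcription factor activity in HepG2 was captured via cis-regulated reporter constructs; after 24 h dosing, reporter mRNA was reverse-transcribed, amplified, fluorescently labelled and sized by capillary electrophoresis, with activity fitted bidirectionally relative to DMSO.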

[11] = ATG_NRF2_ARE_CIS: Attagene CIS-FACTORIAL HepG2 Assay for human Nuclear Factor Erythroid 2 Related Factor 2 (NFR2) response to Antioxidant Response Elements (ARE) (AID 2282992); conditions: HepG2 Attagene ARE/NRF2 reporter, transcription factor activity; actives raise or lower the signal;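 further: reporter mRNA level measured by RT-PCR and capillary electrophoresis fluorescence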
Summary of the method: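 Endogenous transcription factor activity in human liver HepG2 cells is tracked via a cis-element-driven reporter within a multiplexed set. mRNA induction is read by RT-PCR and capillary electrophoresis after 24 h, with DMSO as baseline.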

[12] = ATG_ERE_CIS: Attagene CIS-FACTORIAL HepG2 Assay for Estrogen Response Element (ERE) (AID 2282940); conditions: HepG2 ERE cis-reporter, Attagene RNA transcript; actives raise or lower the signal
Summary of the method: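 Human liver cells (HepG2) bearing transiently transfected, promoter-regulated reporter units were exposed 24 h. Reporter mRNA induction was detected by capillary electrophoresis of labelled RT-PCR products and fitted bidirectionally to DMSO.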

[13] = ATG_AP_1_CIS: Attagene CIS-FACTORIAL HepG2 Assay for human Activator Protein 1 (AP-1) (AID 2282931); conditions: HepG2 Attagene cis-factorial AP-1 reporter mRNA; actives raise or lower the signal
Summary of the method: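 Endogenous transcription-factor activity in human HepG2 liver cells is read through a cis-promoter reporter transcript, sampled 24 h after dosing. Detection uses RT-PCR with capillary electrophoresis; values come from bidirectional fitting relative to DMSO.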

[14] = ATG_EGR_CIS: Attagene CIS-FACTORIAL HepG2 Assay for human Early Growth Response 1 (EGR1) (AID 2282938); conditions: HepG2 Attagene CIS-FACTORIAL EGR reporter mRNA; actives raise or lower the signal
Summary of the method: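 Endogenous TF activity in HepG2 liver cells was gauged through cis-promoter reporter constructs transiently transfected. After 24 h dosing, reporter mRNA was quantified by RT-PCR and capillary electrophoresis, and curves fitted in both directions versus DMSO.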

[15] = ATG_MRE_CIS: Attagene CIS-FACTORIAL HepG2 Assay for human Metal Responsive Element (MRE) (AID 2282954); conditions: HepG2 MRE cis-reporter transcription, Attagene multiplex; actives raise or lower the signal
Summary of the method: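 Readout: capillary electrophoresis of 6-FAM-labelled, HpaI-digested RT-PCR reporter products. System: HepG2 cells carrying transient multiplexed cis reporters, dosed 24 h. Analysis: bidirectional fit, DMSO baseline.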

[16] = read-out: Human Leukocyte Antigen - DR isotype (HLADR), HLA-DRA (gene 3122); test: BSK_3C_HLADR: BioMAP Diversity Plus: 3C Assay for Human Leukocyte Antigen - DR isotype (HLADR) Biomarker Activity (AID 2283019); conditions: actives raise or lower the signal; primary human endothelial cells (HUVEC)
Summary of the method: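 HUVEC monoculture, HLA-DR measured by ELISA 24 h after chemical dosing. Fitted bidirectionally against DMSO baseline; parallel SRB staining assessed cytotoxicity, with 3C proliferation read by SRB at 48 h.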

Measured: AC50

O=[N+]([O-])c1cccc([N+](=O)[O-])c1
active: [1] 68.6 µM

N#CSc1ccc([N+](=O)[O-])cc1[N+](=O)[O-]
active: [2] 15.9 µM | [3] 16.8 µM | [4] 20.1 µM | [5] 20.3 µM | [6] 16.5 µM | [7] 16.4 µM | [8] 17.7 µM | [9] 11.1 µM | [10] 11.1 µM | [11] 16.2 µM

O=[N+]([O-])OCC(CO[N+](=O)[O-])(CO[N+](=O)[O-])CO[N+](=O)[O-]
active: [12] 83.5 µM

Cc1cccc([N+](=O)[O-])c1[N+](=O)[O-]
active: [13] 71.5 µM | [14] 71.5 µM | [15] 71.5 µM | [16] 21.9 µM
